# Measurements taken from PubChem BioAssay AID1645886 (National Center for Advancing Translational Sciences (NCATS), 2021).
# Chains of the proteins cited; added tags and fusions are not shown. Lines headed by an entry give the natural chain unless they say otherwise; changes in a name come on top.
# UniProt Q8WZA2: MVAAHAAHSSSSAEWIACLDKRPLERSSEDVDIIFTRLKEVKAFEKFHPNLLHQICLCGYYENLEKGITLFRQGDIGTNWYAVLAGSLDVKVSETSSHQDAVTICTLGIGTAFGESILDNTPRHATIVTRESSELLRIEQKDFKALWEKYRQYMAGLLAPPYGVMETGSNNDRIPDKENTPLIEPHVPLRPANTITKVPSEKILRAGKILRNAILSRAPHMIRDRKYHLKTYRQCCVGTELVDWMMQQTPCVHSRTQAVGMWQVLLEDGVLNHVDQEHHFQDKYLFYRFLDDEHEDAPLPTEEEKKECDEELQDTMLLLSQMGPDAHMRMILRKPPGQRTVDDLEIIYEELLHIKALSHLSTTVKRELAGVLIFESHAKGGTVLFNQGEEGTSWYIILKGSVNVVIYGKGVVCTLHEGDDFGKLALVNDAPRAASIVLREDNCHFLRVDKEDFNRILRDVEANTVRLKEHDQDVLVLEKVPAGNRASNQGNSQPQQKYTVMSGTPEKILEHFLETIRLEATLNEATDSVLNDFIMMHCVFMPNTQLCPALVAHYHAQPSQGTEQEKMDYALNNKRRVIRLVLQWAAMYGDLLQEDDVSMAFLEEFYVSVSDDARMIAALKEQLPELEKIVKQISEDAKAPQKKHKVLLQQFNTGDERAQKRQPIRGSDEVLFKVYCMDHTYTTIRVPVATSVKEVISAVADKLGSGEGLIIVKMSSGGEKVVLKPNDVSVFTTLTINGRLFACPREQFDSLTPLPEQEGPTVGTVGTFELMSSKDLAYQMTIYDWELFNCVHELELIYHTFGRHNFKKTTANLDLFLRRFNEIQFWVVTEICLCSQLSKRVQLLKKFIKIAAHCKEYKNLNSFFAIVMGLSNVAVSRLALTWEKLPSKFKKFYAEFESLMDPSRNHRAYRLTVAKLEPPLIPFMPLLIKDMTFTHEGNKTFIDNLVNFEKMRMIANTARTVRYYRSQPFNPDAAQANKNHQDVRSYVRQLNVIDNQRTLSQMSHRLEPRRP
# Where “and” joins values, the source holds several entries; their conditions need not be identical. Equal entries are not always repeated. The entries are a selection whose mix differs from that of the whole data set. Inconclusive results are not listed. Calls of active or inactive are those of the source. The call rests on the fitted dose curve; in most records, active means well fitted inhibition curve with a large enough effect; inconclusive means small, poorly fitted or top-dose-only effect; inactive means no such curve, though single readings can be large or run the other way.
# Target: Rap guanine nucleotide exchange factor 4 (Homo sapiens) (UniProt Q8WZA2)
# Experiment: Validation qHTS for antagonist of cAMP-regulated guanine nucleotide exchange factor 4 (EPAC2); further: nearly all actives have a fitted effect of over 40% in size
# Details: EPAC2 Rap1B BODIPY-GDP exchange, fluorescence; at 112 µM (top of the series) unless noted
# From the text: Principle Investigator: Xiaodong Cheng Ph.D. The University of Texas Medical Branch, […], TX MLPCN Grant: NS066510 In multi-cellular eukaryotic organisms, the effects of cAMP are transduced by two ubiquitously-expressed intracellular cAMP receptors, the classic protein kinase A/cAMP-dependent protein kinase (PKA/cAPK) and the more recently discovered exchange protein directly activated by cAMP/cAMP-regulated guanine nucleotide exchange factor (EPAC/cAMP-GEF). Both PKA and EPAC are ubiquitously expressed in all tissues, and an increase in intracellular cAMP levels will lead to the activation of both PKA and EPAC. Therefore, careful dissections of the individual role and relative contribution of EPAC and PKA within the overall cAMP signaling in various model systems are critical for further elucidating the mechanism of cAMP signaling. To date no EPAC-specific antagonists and agonist, as well as isoform-specific agonists have been reported, and developing EPAC-specific pharmacological probes to determine the physiological functions that EPAC play in the overall cAMP-mediated signaling remains a major challenge within the research field. Furthermore, identified regulators of EPAC may lead to new mechanism-based therapeutic strategies specifically targeting the EPAC / cAMP-signaling components as EPAC has been implicated to play important roles in major human pathological conditions such as diabetes, heart disease, and cancer. This qHTS will be used to screen the Molecular Libraries Small Molecule Repository (MLSMR) as a concentration-titration series using the NCGC unique quantitative screening (qHTS) platform to find activators for EPAC1. In addition, this assay will also be used as a counterscreen for the EPAC2 qHTS. This fluorescent based assay is developed and validated for EPAC1 that measures exchange using EPAC effector Rap1 complex with BODIPY-GDP, a GDP analog with a tethered fluorophores. Activators are identified by monitoring the change in fluorescence signal as the exchanged free BODIPY-GDP has a reduced fluorescence compared to Rap1-bound BODIPY-GDP. Increase in signal (activation) is the desired outcome for the EPAC1 agonist while no activity in this assay is desired for the EPAC2 agonist counterscreen. Reference: [1] de Rooij, J., Zwartkruis, F. J., Verheijen, M. H., Cool, R. H., Nijman, S. M., Wittinghofer, A., and Bos, J.L. (1998) Nature 396, 474-477.
# Briefly, three uL of reagents (100 nM EPAC2, 250 nM RAP1B-BODIPY-GDP, 50 uM GDP) were dispensed into a 1536-well Greiner black solid-bottom medium binding assay plate. Controls and test compounds (23 nL) were transferred to the plate via a Kalypsys pin tool equipped with a 1536-pin array. The plates were centrifuged at 1,000 rpm for 15 seconds followed by 5 minute incubation at room temperature. The assay plates were read at 5 minute intervals for 30 minutes in the ViewLux plate reader using 480nm excitation and 540nm emission filters. The results were normalized to the agonist positive control of 6.5 mM cAMP.
row,SMILES,"activity, negative = inhibition"
1,CN(CCCl)Cc1cc(Cl)c(NC2=NCCN2)c(Cl)c1,inactive: 1.69% and inactive: -12.6%
2,CN(C(=O)Cc1ccc(Cl)c(Cl)c1)[C@@H]1CCCC[C@H]1N1CCCC1,inactive: -10.9%
3,NC(=O)Nc1ccc([As](=O)(O)O)cc1,inactive: 6%
4,CN(C(=O)Cc1ccccc1)[C@@H]1CC[C@]2(CCCO2)C[C@H]1N1CCCC1,inactive: -23.2%
5,CN(C(=O)Cc1ccc(Cl)c(Cl)c1)[C@H]1CC[C@@]2(CCCO2)C[C@@H]1N1CCCC1,inactive: 18.4%
6,CN(C(=O)Cc1ccc(Cl)c(Cl)c1)[C@@H]1CC[C@]2(CCCO2)C[C@H]1N1CCCC1,inactive: -11.4%
7,O=[N+]([O-])c1cc([N+](=O)[O-])c2nc[nH]c2c1,inactive: 7.57%
8,CN(C(=O)Cc1ccc(Cl)c(Cl)c1)[C@@H]1CCCC[C@@H]1N1CCCC1,inactive: -19.5%
9,O=C(OC1CN2CCC1CC2)c1ccccc1 (stereo unspecified),inactive: 28.9%
10,CN(C(=O)Cc1ccccc1)[C@H]1CC[C@@]2(CCCO2)C[C@@H]1N1CCCC1,inactive: 10.6%
11,COc1cccc([N+](=O)[O-])c1[N+](=O)[O-],inactive: -10.6%
12,CC(=O)C1=CCCC2CCC1N2 (stereo unspecified),inactive: -7.99%
13,COc1cc([N+](=O)[O-])c([N+](=O)[O-])cc1OC,inactive: -23.1%
14,Cc1cc(C=O)ccc1N(CCCl)CCCl,inactive: -0.355%
15,Nc1c(O)cc([N+](=O)[O-])cc1[N+](=O)[O-],inactive: -19.6%
16,CCNC(C)Cc1ccc2c(c1)OCO2 (stereo unspecified),inactive: -2.65% [at 239 µM]
